According to PubChem BioAssay AID1778 (Sanford-Burnham Center for Chemical Genomics, 2009):
Some of the results follow. Entries with a potency or affinity are not part of this list. The source made the active and inactive calls. No stated cut-off is given here; in the data, active means inhibition above about 50%; inactive means the rest.

The chains behind the UniProt entries cited, without tags or fusion partners. Where a name states a change or a piece, a line headed by the entry shows the natural chain unless it says otherwise.
UniProt P41145: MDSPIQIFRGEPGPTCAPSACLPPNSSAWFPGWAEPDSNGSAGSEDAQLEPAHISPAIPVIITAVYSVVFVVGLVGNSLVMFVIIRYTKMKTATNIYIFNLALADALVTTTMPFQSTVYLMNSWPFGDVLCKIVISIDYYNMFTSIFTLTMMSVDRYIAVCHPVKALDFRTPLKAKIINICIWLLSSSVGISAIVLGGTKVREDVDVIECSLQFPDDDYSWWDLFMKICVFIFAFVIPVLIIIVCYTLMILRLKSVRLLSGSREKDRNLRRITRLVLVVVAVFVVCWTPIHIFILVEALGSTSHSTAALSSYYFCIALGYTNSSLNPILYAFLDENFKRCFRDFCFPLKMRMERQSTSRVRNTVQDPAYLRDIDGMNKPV

Each compound was assayed against Kappa-type opioid receptor (Homo sapiens) (UniProt P41145) (assay: kappa opioid receptor blockers – cell-based, luminescence, uHTS (AID 1778)). Settings: KOR beta-arrestin recruitment, antagonist mode, at 10 µM, hits give high values.

Row | SMILES | inhibition
1 | CCC(=O)Nc1ccc(NC(=O)/C=C/c2ccc(Cl)cc2)cc1 | inactive: -21.1%
2 | NC(=O)Cn1c2[n+](c3ccccc31)CC(O)CS2 (stereo not drawn) | inactive: -7.3%
3 | CCN(CC)CCn1c(NCc2ccccn2)nc2ccccc21 | inactive: 4.6%
4 | CCN(CC)CCn1c(N)nc2ccccc21 | inactive: 14.3%
5 | Cc1ccc(C(C(=O)NC2CCCCC2)N(Cc2ccco2)C(=O)Cn2cnc3ccccc32)cc1 (stereo not drawn) | inactive: 12.1%
6 | CC(O)CNc1nc2ccccc2n1CC(=O)NCC(F)(F)F (stereo not drawn) | inactive: -21.5%
7 | O=C(CSc1nc2ccccc2n1CC(=O)N1CCCC1)N1CCN(C(=O)c2ccco2)CC1 | inactive: -34.4%
8 | C[C@H](NC(=O)N1CCn2c1nc1ccccc12)C(=O)NCCc1ccccc1 | inactive: -4.7%
9 | CSc1ccccc1NC(=O)Cn1c(-c2cscn2)nc2ccccc21 | inactive: 21.9%
10 | O=C(Cn1cnc2ccccc21)N/N=C/c1ccccn1 | inactive: 11.7%
11 | CC(O)c1nc2ccccc2n1CC(=O)Nc1ccc2c(c1)OCCO2 (stereo not drawn) | inactive: -9.9%
12 | CSCC[C@H](NC(=O)N1CCn2c1nc1ccccc12)C(=O)NCC1CCCO1 (stereo partly drawn) | inactive: -9.7%
13 | Cc1nnc(NC(=O)Cn2cnc3c2c(=O)n(C)c(=O)n3C)s1 | inactive: 6.3%
14 | Cc1ccc(/C=N/NC(=O)Cn2cnc3c2c(=O)n(C)c(=O)n3C)s1 | inactive: 5.1%
15 | O=C(Cn1c2[n+](c3ccc(C(F)(F)F)cc31)CCCCC2)Nc1ccccc1 | inactive: -9%
16 | Cc1ccc(Cn2nnnc2CN2CCC(n3nnc4ccccc43)CC2)cc1 | inactive: 24.9%
17 | O=c1oc2ccccc2c2c1ncn2CCN1CCOCC1 | inactive: -18.3%
18 | COc1ccc(OC)c(C(=O)CSc2nc3ccccc3n2CC(=O)NC(C)(C)C)c1 | inactive: 10.3%
19 | CCOCN(C(=O)Cn1c(CO)nc2ccccc21)c1c(C)cccc1CC | inactive: 3.8%
20 | Cn1c(=O)c2c(ncn2CC(=O)N2CCOCC2)n(C)c1=O | inactive: 14.7%
21 | Cn1c(=O)c2c(ncn2CC(=O)Nc2nc(-c3ccc(F)c(F)c3)cs2)n(C)c1=O | inactive: 15.1%
22 | O=P(Nc1nc2ccccc2s1)(c1ccccc1)c1ccccc1 | inactive: 3.4%
23 | N=c1n(CCN2CCCC2)c2ccccc2n1CC(O)c1ccco1 (stereo not drawn) | inactive: 8.3%
24 | CC(C)N(C(=O)Cn1c(SCC(=O)NC2CC2)nc2ccccc21)C(C)C | inactive: 42.5%

Row | SMILES | inhibition
25 | CCN(CC)CCn1c(NS(=O)(=O)c2ccc(Cl)cc2)nc2ccccc21 | inactive: 21.3%
26 | Cn1c(=O)c2c(nc(CN3CCN(c4ccccc4)CC3)n2CCN2CCOCC2)n(C)c1=O | inactive: 3.2%
27 | C[C@H]1OP(=O)(Oc2ccccc2)[C@H](O)[C@H](O)[C@H]1N=[N+]=[N-] (stereo partly drawn) | inactive: 32.5%
28 | Cc1cc2ncn(C3CC(=O)N(Cc4ccc(N5CCCC5=O)cc4)C3=O)c2cc1C (stereo not drawn) | inactive: 29.1%
29 | COc1ccccc1OCCSc1nc2ccccc2n1CC(N)=O | inactive: -16.4%
30 | Cn1c(=O)c2c(ncn2CC(=O)N/N=C/c2c[nH]c3ccccc23)n(C)c1=O | inactive: -7.9%
31 | O=[As](O)(c1ccccc1)c1ccc(O)cc1 | inactive: 18.3%
32 | CCOc1ccc(NC(=O)N2CCC(n3c(=O)[nH]c4ccccc43)CC2)cc1 | inactive: -0.1%
33 | O=C(Cn1c(=O)n(CC2CS2)c2ccccc21)N1CCCCC1 (stereo not drawn) | inactive: -4.3%
34 | Cc1nc2cc(C(F)(F)F)ccc2n1C1CCN(Cc2nnnn2Cc2cccs2)CC1 | inactive: 15.9%
35 | COCC(C)NC(=O)Cn1c(SCc2ccccc2)nc2ccccc21 (stereo not drawn) | inactive: -27.7%
36 | Cc1nc2ccc(S(=O)(=O)NC(C(=O)N3CCn4c3nc3ccccc34)C(C)C)cc2s1 (stereo not drawn) | inactive: 23.7%
37 | O=[N+]([O-])c1ncn(CCn2cnc([N+](=O)[O-])n2)n1 | inactive: -1.7%
38 | CC(=O)NC(SC(=S)N(C)C)C(Cl)(Cl)Cl (stereo not drawn) | inactive: 20.1%
39 | CCOC(=O)C1=C(Cn2cnc3ccccc32)NC(=O)NC1c1cc(C)ccc1C (stereo not drawn) | inactive: 15%
40 | O=[N+]([O-])c1ccc(O)c(/C=N/Nc2ccc([N+](=O)[O-])cc2[N+](=O)[O-])c1 | inactive: -19.8%
41 | OC1(c2ccccc2)CCN(Cc2ccccc2)CC1 | inactive: -14.7%
42 | CCn1nccc1C(=O)Nc1nc2ccccc2n1CCN1CCCCC1 | inactive: -0.9%
43 | N=c1n(CCN2CCOCC2)c2ccccc2n1CC(=O)c1ccc(Cl)c(Cl)c1 | inactive: -23.7%
44 | O=C(Cn1c(CC(=O)N2CCCC2)nc2ccccc21)NCc1ccccc1 | inactive: 19.7%
45 | COCCOC(=O)C1=C(C)N=C2SCCC(=O)N2C1/C=C/c1ccccc1 (stereo not drawn) | inactive: -11.6%
46 | Cc1ccc2c(c1)C1CN(C)CCC1N2C(=O)/C=C/c1ccc2c(c1)OCO2 (stereo not drawn) | inactive: 11.4%
47 | COc1cc(C(=O)OCCn2c(=O)c3c(ncn3CCN(C)C)n(C)c2=O)cc(OC)c1OC | inactive: 8.7%
48 | O=C(Nc1cccc(F)c1)N1CCC(n2c(=O)[nH]c3ccccc32)CC1 | inactive: 34.6%

Row | SMILES | inhibition
49 | O=C(OC1CN2CCC1CC2)c1cccc(Cl)c1 (stereo not drawn) | inactive: -37.6%
50 | COc1ccc(N2C(=O)CC(N3CCC(n4c(=O)[nH]c5ccccc54)CC3)C2=O)cc1 (stereo not drawn) | inactive: -52.3%
51 | CCn1c(N)[n+](CC(=O)Nc2ccc(SC(F)F)cc2)c2ccccc21 | inactive: -32.4%
52 | CN(C)C(=O)Cn1c(SCC(=O)NC2CCCCC2)nc2ccccc21 | inactive: 0.9%
53 | CSCC[C@H](NC(=O)N1CCn2c1nc1ccccc12)C(=O)NCc1ccc(F)cc1 | inactive: -35.5%
54 | Nc1ccc([As](=O)(O)c2ccc([N+](=O)[O-])cc2)cc1 | inactive: 0%
55 | C(Cc1nn[nH]n1)Cc1nn[nH]n1 | inactive: -19%
56 | O=C(Nc1ccccc1Cl)N1CCn2c(nc3ccccc32)C1 | inactive: -20%
57 | COc1ccc(CCNC(=O)Cn2cnc3c2c(=O)n(C)c(=O)n3C)cc1OC | inactive: 24.3%
58 | Cn1c(=O)[nH]c(=O)c2c1nc(CN(Cc1ccccc1)Cc1ccccc1)n2CCN1CCOCC1 | inactive: -6.6%
59 | CCC(C(=O)NC1CCCCC1)n1c(SCc2cccc(F)c2)nc2ccncc21 (stereo not drawn) | inactive: 14.8%
60 | CC(/C=N/NC(=O)Cn1cnc2c1c(=O)n(C)c(=O)n2C)=C\c1ccccc1 | inactive: 7.4%
61 | CC(C)c1ccccc1NC(=O)Cn1c(-c2ccccc2Cl)nc2ccccc21 | inactive: -0.6%
62 | c1ccc(CNc2nc3ccccc3n2CCN2CCOCC2)nc1 | inactive: -50.8%
63 | O=P(Nc1nccs1)(c1ccccc1)c1ccccc1 | inactive: 11.9%
64 | Cn1c(=O)n(CC(=O)N2CCOCC2)c2ccccc21 | inactive: 6%
65 | CC(C)C(=O)NC(Sc1ccccc1)C(Cl)(Cl)Cl (stereo not drawn) | inactive: -13.7%
66 | CCc1ccc(NC(=O)Cn2cnc3c(=O)n(C)c(=O)n(C)c32)cc1 | inactive: 0.7%
67 | CCS(=O)(=O)c1nc2ccccc2n1CC(=O)N1CCCCC1 | inactive: 10.8%
68 | CC1CCCC(C)N1C(=O)Cn1c(SCC(=O)Nc2ccc3c(c2)OCO3)nc2ccccc21 (stereo not drawn) | inactive: 1.7%
69 | c1ccc2c(c1)nc1n2CCN1CCN1CCCC1 | inactive: -24.5%
70 | Cn1c(=O)c2c(ncn2CC(=O)N2CCN(S(=O)(=O)c3ccccc3)CC2)n(C)c1=O | inactive: -11.3%
71 | O=C(c1cccs1)N1CCn2c1nc1ccccc12 | inactive: -3.3%
72 | CC(C)C[C@H](NC(=O)N1CCn2c1nc1ccccc12)C(=O)NC1CC1 | inactive: -29.4%

Row | SMILES | inhibition
73 | CCN(CC)CCn1c(=N)n(CC(O)COc2cccc(C)c2)c2ccccc21 (stereo not drawn) | inactive: -8.2%
74 | COc1ccc(OCC(O)Cn2c(=N)n(CCN3CCCCC3)c3ccccc32)cc1 (stereo not drawn) | inactive: 15.6%
75 | N#CCCN1CCn2c1nc1ccccc12 | inactive: -27.5%
76 | Cn1c(=O)c2ncn(CC(=O)N/N=C/c3ccco3)c2n(C)c1=O | inactive: -15.4%
77 | CSc1nc2ccccc2n1CC(=O)Nc1cc(C(F)(F)F)ccc1N1CCOCC1 | inactive: 16.1%
78 | CCOc1ccc(CCNC(=O)Cn2c(-c3nonc3N)nc3ccccc32)cc1OCC | inactive: 15.3%
79 | CCN(CC)CCn1c(NCc2nc3ccccc3n2Cc2ccccc2)nc2ccccc21 | inactive: -12.1%
80 | O=C(CCCCCNC(=O)N1CCn2c1nc1ccccc12)NCc1ccccc1 | inactive: -44.6%
81 | CCNC(=O)Cn1cnc2c1c(=O)n(C)c(=O)n2C | inactive: 16.9%
82 | CCN(CC)C(=O)CSc1nc2ccccc2n1CC(=O)N1CCN(c2ccccc2OC)CC1 | inactive: 10%
83 | c1nnnn1CCn1cnnn1 | inactive: 0.1%
84 | CCC(=O)Nc1cccc(C(=O)/C=C/c2ccccc2)c1 | inactive: 18.9%
85 | O=C(Cn1cnc2ccccc21)N/N=C/c1ccccc1 | inactive: -4.8%
86 | CCOC(=O)Cn1c(=O)oc2cc(S(=O)(=O)N3CCn4c3nc3ccccc34)ccc21 | inactive: -2.6%
87 | O=C(Cn1c(CO)nc2ccccc21)Nc1cc(C(F)(F)F)ccc1N1CCOCC1 | inactive: 5.2%
88 | Cc1ccc(NC(=O)Cn2c(/C=C/c3ccccc3)nc3ccccc32)cc1C | inactive: -24.6%
89 | O=S(=O)(c1ccc(Cl)cc1)N1CCn2c1nc1ccccc12 | inactive: -0.6%
90 | CSCC[C@H](NC(=O)N1CCn2c1nc1ccccc12)C(=O)NCc1ccc2c(c1)OCO2 | inactive: -2.1%
91 | CC(/C=N/NC(=O)Cn1cnc2ccccc21)=C\c1ccccc1 | inactive: 16.7%
92 | COc1ccc(Cc2nnc(NC(=O)Cn3cnc4c3c(=O)n(C)c(=O)n4C)s2)cc1OC | inactive: -6.4%
93 | CCCn1c(=O)c2c(nc3n2CCN3Cc2ccco2)n(C)c1=O | inactive: 13%
